From US10836763B2, “5 to 7 membered heterocyclic amides as JAK inhibitors” (priority 2018, dated 2020)

Sequences of proteins named here, by UniProt entry; tags and fusion partners are left off. A change or cut given only in a name is not applied to a line headed by its entry.
UniProt P23458: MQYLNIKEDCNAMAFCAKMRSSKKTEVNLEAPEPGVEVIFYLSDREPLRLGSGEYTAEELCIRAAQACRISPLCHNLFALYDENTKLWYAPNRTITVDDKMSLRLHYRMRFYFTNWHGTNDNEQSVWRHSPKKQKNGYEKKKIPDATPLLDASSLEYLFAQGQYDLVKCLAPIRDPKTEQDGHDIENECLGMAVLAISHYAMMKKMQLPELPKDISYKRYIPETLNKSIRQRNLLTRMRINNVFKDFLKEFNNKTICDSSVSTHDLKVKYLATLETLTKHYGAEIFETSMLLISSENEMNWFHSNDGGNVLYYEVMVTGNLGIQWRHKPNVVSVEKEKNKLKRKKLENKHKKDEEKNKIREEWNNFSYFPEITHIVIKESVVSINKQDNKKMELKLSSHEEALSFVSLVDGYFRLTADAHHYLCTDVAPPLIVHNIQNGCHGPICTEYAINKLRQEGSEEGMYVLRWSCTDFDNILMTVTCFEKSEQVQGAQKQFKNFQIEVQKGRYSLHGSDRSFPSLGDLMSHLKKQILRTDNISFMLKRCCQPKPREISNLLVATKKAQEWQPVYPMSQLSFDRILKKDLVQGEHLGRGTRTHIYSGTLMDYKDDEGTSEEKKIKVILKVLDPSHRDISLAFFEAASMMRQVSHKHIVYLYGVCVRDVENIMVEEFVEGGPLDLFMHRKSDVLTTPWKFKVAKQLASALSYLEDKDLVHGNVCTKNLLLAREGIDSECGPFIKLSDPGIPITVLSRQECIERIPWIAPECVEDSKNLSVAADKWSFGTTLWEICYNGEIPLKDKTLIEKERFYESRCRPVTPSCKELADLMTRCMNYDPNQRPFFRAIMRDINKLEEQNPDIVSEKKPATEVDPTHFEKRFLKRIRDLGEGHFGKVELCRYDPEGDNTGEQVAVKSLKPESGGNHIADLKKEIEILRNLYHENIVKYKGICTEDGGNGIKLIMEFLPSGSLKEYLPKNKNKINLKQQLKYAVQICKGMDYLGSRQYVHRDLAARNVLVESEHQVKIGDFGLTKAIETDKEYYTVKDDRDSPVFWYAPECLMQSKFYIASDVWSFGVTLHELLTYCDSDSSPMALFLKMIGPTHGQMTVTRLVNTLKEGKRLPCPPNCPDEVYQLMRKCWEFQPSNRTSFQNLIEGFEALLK

Legend:
[1] = test system: IL-2 stimulated STAT5 phosphorylation in Tall-1 human T cell line; assay: Inhibition of IL-2 stimulated pSTAT5 in Tall-1 T cells; type: cell-based; details: TALL-1, 0.5 h, read-out: Tall-1 pIC50 (converted)
Procedure: Assay 2: Inhibition of IL-2 Stimulated pSTAT5 in Tall-1 T Cells
The potency of test compounds for inhibition of interleukin-2 (IL-2) stimulated STAT5 phosphorylation was measured in the Tall-1 human T cell line (DSMZ) using AlphaLisa.
Phosphorylated STAT5 was measured via the AlphaLISA SureFire Ultra pSTAT5 (Tyr694/699) kit (PerkinElmer).
Compounds were serially diluted in DMSO and dispensed acoustically to empty wells. Assay media (phenol red-free DMEM (Life Technologies) supplemented with 10% FBS (ATCC)) was dispensed (4 μL/well) and plates shaken at 900 rpm for 10 mins. […] Phosphorylated STAT5 was measured via the pSTAT5 AlphaLisa kit (PerkinElmer). […] Luminescence was measured with excitation at 689 nm and emission at 570 nm using an EnVision plate reader (PerkinElmer) under green filtered <100 lux light.
To determine the inhibitory potency of test compounds in response to IL-2, the average emission intensity of beads bound to pSTAT5 was measured in a human T cell line. IC50 values were determined from analysis of the inhibition curves of signal intensity versus compound concentration. Data are expressed as pIC50 (negative decadic logarithm IC50) values (mean±standard deviation).

[2] = Lung and plasma drug concentration in the murine IL-13 pSTAT6 model; type: in vivo; details: Balb/c, mouse, other: oral aspiration, 50 µg/mouse, lung ng/g to plasma ng/mL at 5 hours, mice, read-out: Lung to Plasma ratio at 5 hr
Procedure: Assay 3: Murine (Mouse) Model of IL-13 Induced pSTAT6 Induction in Lung Tissue
Adult Balb/c mice from Harlan were used in the assay. […] Animals were placed in lateral recumbency post dose and monitored for full recovery from anesthesia before being returned to their home cage. Four hours later, animals were once again briefly anesthetized and challenged with either vehicle or IL-13 (0.03 μg total dose delivered, 50 μL total volume) via oral aspiration before being monitored for recovery from anesthesia and returned to their home cage. One hour after vehicle or IL-13 administration, whole blood and lungs were collected for both pSTAT6 detection in lung homogenates using a Perkin Elmer AlphaLISA® SureFire® Ultra™ HV p-STAT6 (Tyr641) assay kit and for total drug concentration analysis in both lung and plasma. Blood samples were centrifuged (Eppendorf centrifuge, 5804R) for 4 minutes at approximately 12,000 rpm at 4° C. to collect plasma. […] Plasma and lung levels of test compound were determined by LC-MS analysis against analytical standards constructed into a standard curve in the test matrix. A lung to plasma ratio was determined as the ratio of the lung concentration in ng/g to the plasma concentration in ng/mL at 5 hours.

[3] = test system: TSLP-evoked TARC release in human peripheral blood mononuclear cells; assay: Inhibition of TSLP-evoked TARC release in human peripheral blood mononuclear cells; type: cell-based; details: PBMC, 48 h, read-out: pIC50 ± st. dev., inhibition of TSLP-evoked TARC release (converted)
Text: Assay 4: Inhibition of TSLP-Evoked TARC Release in Human Peripheral Blood Mononuclear Cells
Thymic stromal lymphopoietin (TSLP) and thymus and activation-regulated chemokine (TARC) are overexpressed in asthmatic airways, and correlate with disease severity. In the lungs, TSLP may be released by bronchial epithelial cells in response to allergens and viral infections. TSLP signals through an IL-7Rα/TSLPR heterodimer found in a broad range of tissues and cell types, including epithelial cells, endothelial cells, neutrophils, macrophages, and mast cells. […]
The potencies of the test compounds were measured for inhibition of TARC release. […]
Following stimulation, the cell culture supernatants were harvested and TARC levels were detected by enzyme-linked immunosorbent assay (ELISA), using Human CCL17/TARC Quantikine ELISA Kit (R&D Systems # DDN00) according to the manufacturer's instructions.
For dose response analysis, the log [test compound (M)] was plotted versus the percent response values for each donor, and IC50 values were determined using a nonlinear regression analysis with GraphPad Prism Software using the 4-parameter sigmoidal dose-response algorithm with variable slope. Data are expressed as mean pIC50 (negative decadic logarithm IC50) values calculated from pIC50 values of individual donors and rounded to one decimal place.

JAK1 = JAK1 (Homo sapiens (Human), UniProt P23458); assay: Biochemical JAK kinase assay (LanthaScreen), JAK1; details: ATP at Km 25 μM; pIC50 converted with Cheng-Prusoff
Procedure: Assay 1: Biochemical JAK Kinase Assays
A panel of four LanthaScreen JAK biochemical assays (JAK1, 2, 3 and Tyk2) were carried in a common kinase reaction buffer (50 mM HEPES, pH 7.5, 0.01% Brij-35, 10 mM MgCl2, and 1 mM EGTA). Recombinant GST-tagged JAK enzymes and a GFP-tagged STAT1 peptide substrate were obtained from Life Technologies.
Serially diluted compounds were pre-incubated with each of the four JAK enzymes and the substrate in white 384-well microplates (Corning) at ambient temperature for 1 h. ATP was subsequently added to initiate the kinase reactions in 10 μL total volume, with 1% DMSO. […] The plates were allowed to incubate at ambient temperature for 1 h before being read on the EnVision reader (Perkin Elmer). Emission ratio signals (520 nm/495 nm) were recorded and utilized to calculate the percent inhibition values based on DMSO and background controls.
For dose-response analysis, percent inhibition data were plotted vs. compound concentrations, and IC50 values were determined from a 4-parameter robust fit model with the Prism software (GraphPad Software). Results were expressed as pIC50 (negative logarithm of IC50) and subsequently converted to pKi (negative logarithm of dissociation constant, Ki) using the Cheng-Prusoff equation.

Structure (SMILES) | IC50 [1] | Kp at 5 h [2] | IC50 [3] | JAK1 pKi (JAK1)
CCc1cc(O)ccc1-c1ccc2c(-c3nc4c([nH]3)CN(C)[C@H](C(=O)N3CCN(C)C[C@@H]3C)C4)n[nH]c2c1 [Compound 3, ((S)-2,4-dimethylpiperazin-1-yl)((S)-2-(6-(2-ethyl-4-hydroxyphenyl)-1H-indazol-3-yl)-5-methyl-4,5,6,7-tetrahydro-3H-imidazo[4,5-c]pyridin-6-yl)methanone] | 1.58 nM | 411 | 50.1 nM | –
CCc1cc(O)c(F)cc1-c1ccc2c(-c3nc4c([nH]3)CN(C)[C@H](C(=O)N3CCN(C)C[C@@H]3C)C4)n[nH]c2c1 [Compound C-3, ((S)-2,4-dimethylpiperazin-1-yl)((S)-2-(6-(2-ethyl-5-fluoro-4-hydroxyphenyl)-1H-indazol-3-yl)-5-methyl-4,5,6,7-tetrahydro-3H-imidazo[4,5-c]pyridin-6-yl)methanone, reference compound] | – | – | – | 10.2
